Data reported in PubChem BioAssay AID624481 (The Scripps Research Institute Molecular Screening Center, 2012).
Only a part is listed here, and it is no random draw. Activity calls are given as the source filed them. Cut-off read from the data, not from the text of the source: active = inhibition above about 50%; inactive = the rest.

Sequences of proteins named here, by UniProt entry; tags and fusion partners are left off.
UniProt Q8C167, whole entry, looked up: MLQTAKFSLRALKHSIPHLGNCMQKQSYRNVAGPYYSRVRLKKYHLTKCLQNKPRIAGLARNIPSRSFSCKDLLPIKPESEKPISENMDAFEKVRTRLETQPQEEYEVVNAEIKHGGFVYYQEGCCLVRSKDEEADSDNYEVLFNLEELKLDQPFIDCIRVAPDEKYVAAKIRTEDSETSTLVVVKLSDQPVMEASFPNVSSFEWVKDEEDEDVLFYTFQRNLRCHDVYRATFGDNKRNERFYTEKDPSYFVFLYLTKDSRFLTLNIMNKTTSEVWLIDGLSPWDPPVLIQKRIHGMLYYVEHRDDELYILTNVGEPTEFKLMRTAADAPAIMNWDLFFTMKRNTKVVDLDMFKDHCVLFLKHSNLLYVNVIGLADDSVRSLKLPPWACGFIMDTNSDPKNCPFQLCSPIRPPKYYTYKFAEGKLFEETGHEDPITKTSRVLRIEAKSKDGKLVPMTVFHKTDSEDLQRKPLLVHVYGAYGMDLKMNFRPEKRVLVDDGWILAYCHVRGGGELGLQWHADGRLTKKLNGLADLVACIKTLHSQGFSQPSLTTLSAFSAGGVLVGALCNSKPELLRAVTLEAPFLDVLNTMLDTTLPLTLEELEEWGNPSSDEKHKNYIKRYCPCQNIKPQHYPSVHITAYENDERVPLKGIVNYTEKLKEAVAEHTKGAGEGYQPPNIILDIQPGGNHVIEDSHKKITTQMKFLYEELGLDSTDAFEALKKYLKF

Biological target: Prolyl endopeptidase-like (Mus musculus) (UniProt Q8C167)
Test: purified PREPL inhibitors, PREPL inhibitor project, biochemical, gel-based competitive ABPP, fluorescence, HTS hits (AID 624481)
Conditions: at 20 µM, hits give high values

## CN(C(=O)Cc1ccc(Cl)c(Cl)c1)[C@@H]1CCCC[C@@H]1N1CCCC1
  inhibition: inactive: -32%
